Results as given in ChEMBL document CHEMBL1155287, “Discovery of a small molecule inhibitor through interference with the gp120-CD4 interaction” (Bioorg Med Chem Lett, 2009).

Experiment: Clearance in rat at 1 mg/kg, iv and 1 mg/kg, po
Assay type: ADME, organism-based
Conditions: in vivo

clearance: 18 mL/min/kg
SMILES: CNC(=O)c1cc(OC)c(O[C@@H](C)C(=O)N2CCN(C(=O)c3ccccc3)C[C@H]2C)cn1 (mixture of isomers)
